Source: patent US12440550B2 (priority 2015, dated 2025)

Conditions: mouse, in vivo

## poly(Maleic Anhydride-Alt-1-Octadecene) substituted with 3-(Dimethylamino) Propylamine [Formulation F16]
  reduction of serum transaminases with respect to unformulated vaccine: 40%
  tolerability: well tolerated
